Data as given in US20250034125A1, “COMPOUNDS AND USES THEREOF” (JANSSEN PHARMACEUTICA NV, priority 2019, published 2025).

How the values were obtained:
SCD5 = molecular target: T1, SCD5 (Homo sapiens, UniProt Q86SK9); assay: Growth inhibition of yeast (ole1Δ) expressing human SCD5 as the sole desaturase; format: cell-based
T1 construct: host or cells: Saccharomyces cerevisiae ole1Δ strain (W303 pdr1Δ pdr3Δ background), plasmid pRS316, TDH3 promoter
T1 sequence (Q86SK9 1-330): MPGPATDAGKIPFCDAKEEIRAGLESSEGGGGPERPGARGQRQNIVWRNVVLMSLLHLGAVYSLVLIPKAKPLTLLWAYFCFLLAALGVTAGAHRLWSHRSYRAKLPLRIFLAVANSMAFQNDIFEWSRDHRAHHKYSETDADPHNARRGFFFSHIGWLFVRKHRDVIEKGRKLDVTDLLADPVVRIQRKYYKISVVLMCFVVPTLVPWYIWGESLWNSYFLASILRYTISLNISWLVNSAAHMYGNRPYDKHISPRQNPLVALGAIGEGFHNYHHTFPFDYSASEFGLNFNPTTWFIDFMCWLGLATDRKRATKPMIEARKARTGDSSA

SCD1 = molecular target: T2, SCD1 (Homo sapiens, UniProt O00767); assay: Growth inhibition of yeast (ole1Δ) expressing human SCD1 as the sole desaturase; format: cell-based
T2 construct: host or cells: Saccharomyces cerevisiae ole1Δ strain (W303 pdr1Δ pdr3Δ background), plasmid pRS316, TDH3 promoter
T2 sequence (O00767 1-359): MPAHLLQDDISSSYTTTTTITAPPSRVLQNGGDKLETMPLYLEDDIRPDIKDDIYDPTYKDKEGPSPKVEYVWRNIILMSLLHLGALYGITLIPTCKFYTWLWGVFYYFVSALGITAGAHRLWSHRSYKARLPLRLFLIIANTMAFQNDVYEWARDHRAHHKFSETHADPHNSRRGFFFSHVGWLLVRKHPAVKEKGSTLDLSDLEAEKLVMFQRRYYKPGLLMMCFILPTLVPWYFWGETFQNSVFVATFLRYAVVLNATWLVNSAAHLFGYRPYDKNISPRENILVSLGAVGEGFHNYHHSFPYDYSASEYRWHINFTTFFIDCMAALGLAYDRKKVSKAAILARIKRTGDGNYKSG

Cn1nc(NC(=O)N2CCC(Cc3ccccc3Cl)CC2)ccc1=O [Compound 42, 4-(2-chlorobenzyl)-N-(1-methyl-6-oxo-1,6-dihydropyridazin-3-yl)piperidine-1-carboxamide]
IC50 (SCD5): 30 nM
IC50 (SCD1): 440 nM

Cn1nc(-c2nc(N3CCC(Cc4cccc(F)c4)CC3)no2)ccc1=O [Compound 114, 6-(3-(4-(3-fluorobenzyl)piperidin-1-yl)-1,2,4-oxadiazol-5-yl)-2-methylpyridazin-3(2H)-one]
IC50 (SCD1; yeast strain with SCD1 plasmid, OD600 growth read at 40 h, read-out: SCD1 IC50): 1700 nM

Like-named read-outs stand apart in the source and are kept apart here.
